The assay has as its target hepatitis C virus NS3/4A protease (Hepatitis C virus genotype 1a, UniProt P27958). Put plainly: HCV NS3/4A protease assay. Format: biochemical.

The chains behind the UniProt entries cited, without tags or fusion partners. Residues count along the entry.
UniProt P27958, 1027-1657 limits assumed: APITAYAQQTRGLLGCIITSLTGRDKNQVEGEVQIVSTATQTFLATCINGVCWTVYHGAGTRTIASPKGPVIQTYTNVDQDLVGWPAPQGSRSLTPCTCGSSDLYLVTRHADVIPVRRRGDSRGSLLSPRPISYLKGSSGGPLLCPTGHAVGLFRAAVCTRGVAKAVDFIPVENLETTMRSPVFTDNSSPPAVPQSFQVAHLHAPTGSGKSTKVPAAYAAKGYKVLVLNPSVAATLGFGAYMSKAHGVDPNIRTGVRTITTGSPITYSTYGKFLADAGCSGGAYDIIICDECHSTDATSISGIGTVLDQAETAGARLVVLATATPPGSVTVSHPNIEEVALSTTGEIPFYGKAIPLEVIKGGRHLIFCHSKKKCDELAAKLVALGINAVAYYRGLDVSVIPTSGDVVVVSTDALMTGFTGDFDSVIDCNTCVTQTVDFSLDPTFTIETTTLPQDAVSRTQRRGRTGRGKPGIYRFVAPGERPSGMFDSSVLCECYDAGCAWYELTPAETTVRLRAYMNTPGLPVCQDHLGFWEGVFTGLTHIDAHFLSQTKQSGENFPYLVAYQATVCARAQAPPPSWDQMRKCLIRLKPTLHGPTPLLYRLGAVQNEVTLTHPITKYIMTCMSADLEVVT
UniProt P27958, 1658-1711 partner limits assumed: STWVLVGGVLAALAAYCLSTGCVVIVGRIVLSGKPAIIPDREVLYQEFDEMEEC

Consider one compound from publication PMC9557897 (ACS Omega, 2022).

As to `CC(C)OC(=O)[C@H](C)N[P@](=O)(OC[C@H]1O[C@@H](n2ccc(=O)[nH]c2=O)[C@](C)(F)[C@@H]1O)Oc1ccccc1` [Sovaldi], the half-maximal inhibitory concentration (IC50) is 5.1 µM.

The IC50 is the midpoint of a concentration-inhibition curve. A low value points to greater potency in that assay.
